In the assay the target is Neprilysin (Homo sapiens, UniProt P08473). Nature of the assay: Enzyme NEP Inhibition Assay.

Usually Ki stands for the equilibrium dissociation constant of an inhibitor or competing ligand from its target.

Where only a bound is given, the exact number is not on record here.

In turn, `O=C(O)C(=O)N[C@H](Cc1ccc(-c2ccccc2)cc1)C[C@@H](CO)C(=O)O` [US10123984, Example 6A] gave a Ki below 1 nM.

(Values after BindingDB's records for patent US10123984.)
